Yeast mating assay 2: variants of the scFv Ab-95

Data: MIT Lincoln Laboratory AlphaSeq set, Engelhart et al. 2022, doi:10.1038/s41597-022-01779-4, as distributed in FLAb.

Binding partner: SARS-CoV-2 spike HR2 peptide, sequence PDVDLGDISGINAS.

Ab-95 is the parent antibody, in scFv form: VH, then three GGGGS repeats, then VL. The heavy chain is unchanged in all variants.
VH: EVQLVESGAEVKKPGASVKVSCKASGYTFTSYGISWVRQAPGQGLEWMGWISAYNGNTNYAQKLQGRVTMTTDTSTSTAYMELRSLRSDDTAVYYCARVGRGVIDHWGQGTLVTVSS
VL: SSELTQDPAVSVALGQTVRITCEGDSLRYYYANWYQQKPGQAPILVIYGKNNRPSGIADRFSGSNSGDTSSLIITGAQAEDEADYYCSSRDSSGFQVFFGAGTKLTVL

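The parent was found by panning a naive human phage display library on the peptide. The library (AAYL52) carries one to three amino acid substitutions per variant, with no insertions or deletions. AlphaSeq pools MATa yeast showing the antibodies with MATalpha yeast showing the peptide. Mating (16 h, 30 °C) was followed by selection of diploids and sequencing of their barcodes. Scores were corrected for input abundance and mapped to Kd with protein pairs of known affinity run in the same pool. The assay was run in three technical replicates.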

Substitutions are numbered in sequence along the VL above, starting at 1 (not Kabat).
Scale: log10 of Kd in nM, estimated from mating counts; low values are strong binders.
A pair that was not seen in that replicate is written "n.d."; this usually means weak binding, but a binder can also be missed.
In this assay the parent's reference entry averaged 2.31; its copy inside this library read 2.25.

changes | log10 Kd, replicates | control signals
R28M+Y31S+N51W | n.d. / 4.04 / 4.11 | 4 of 9 (4.36)
E23D+Y29H+S92E | 1.83 / 1.88 / 1.68 | 4 of 9 (3.73)
K50Q+N51W+S88H | 3.86 / n.d. / 4.22 | 2 of 9 (4.47)
R28Q+S89D+R90P | 3.14 / 2.79 / 2.11 | 0 of 9
S88M+S89F+V97G | n.d. / n.d. / n.d. | 2 of 9 (3.56)
N33E+K50P+S92Q | n.d. / 5.97 / 3.37 | 4 of 9 (4.21)
Y30L+N52Y+F98W | 2.61 / 2.36 / 1.62 | 1 of 9 (3.35)
E23A+S26W+N51G | 3.65 / 3.76 / 3.92 | 4 of 9 (4.17)
N33S+R90E+S93Y | 2.85 / 4.87 / 4.03 | 3 of 9 (3.49)
N33D | 3.56 / 2.96 / 3.55 | 1 of 9 (3.34)
R28V+N51P+G94C | 5.31 / n.d. / n.d. | 3 of 9 (3.76)
N33Y+D91C+S92A | 4.04 / n.d. / n.d. | 4 of 9 (3.85)
D25G+R53L+P54L | n.d. / n.d. / n.d. | 3 of 9 (3.90)
S55K+S92M | 2.90 / 2.64 / 2.13 | 1 of 9 (3.50)
L27P+R53Y+P54W | 4.68 / n.d. / n.d. | 2 of 9 (4.30)
D25S+Y29G+S55C | 1.37 / 1.26 / 0.77 | 4 of 9 (4.24)
L27T+R28L+V97F | 3.93 / n.d. / n.d. | 0 of 9
N33G+S92Q+G94P | n.d. / n.d. / 4.69 | 3 of 9 (4.22)
K50I+N51V+G94M | 5.30 / n.d. / 4.30 | 3 of 9 (4.28)
G24T+Y30H+Q96C | n.d. / n.d. / n.d. | 1 of 9 (4.38)
Y29S+N33V+G94Y | 4.53 / 3.92 / 3.31 | 5 of 9 (4.75)
G24E+G94T+V97W | n.d. / n.d. / n.d. | 2 of 9 (4.01)
Y31M+R53F | 3.88 / 3.64 / 3.23 | 3 of 9 (4.33)
S55E+S88I+R90P | 4.16 / n.d. / n.d. | 1 of 9 (2.84)
S26M+Y29F+S93P | 3.93 / 3.43 / n.d. | 1 of 9 (4.64)
Y30I+S93H+F98S | 2.41 / 2.02 / 3.10 | 4 of 9 (4.18)
R53F+S88K | 4.64 / n.d. / n.d. | 2 of 9 (4.07)
E23W+D91P+F98N | n.d. / n.d. / n.d. | 1 of 9 (2.68)
G24P+R28H+S93H | n.d. / n.d. / 3.30 | 3 of 9 (4.06)
S26W+A32N+F98L | 3.44 / 3.35 / 3.00 | 3 of 9 (4.09)
R53I+S88M+R90S | 4.62 / n.d. / n.d. | 5 of 9 (4.14)
L27T+R28L+G49D | 4.35 / n.d. / n.d. | 1 of 9 (3.84)
N33Y+N51K+N52L | n.d. / n.d. / n.d. | 0 of 9
G24D+S88I+S92A | n.d. / 4.66 / n.d. | 1 of 9 (2.53)
G24Q+Y31L+S88Q | n.d. / n.d. / n.d. | 3 of 9 (3.78)

The closing 5 entries, repeated:

changes,"log10 Kd, replicates",control signals
R53I+S88M+R90S,4.62 / n.d. / n.d.,5 of 9 (4.14)
L27T+R28L+G49D,4.35 / n.d. / n.d.,1 of 9 (3.84)
N33Y+N51K+N52L,n.d. / n.d. / n.d.,0 of 9
G24D+S88I+S92A,n.d. / 4.66 / n.d.,1 of 9 (2.53)
G24Q+Y31L+S88Q,n.d. / n.d. / n.d.,3 of 9 (3.78)

Empty control strains, which show no peptide, gave a signal in 28% of pairings with library AAYL52; the median was 3.91 and 95% of these signals were weaker than 2.90. No background was subtracted. Also given: how often the same scFv was detected with the empty control strains, with their mean in brackets.